# In article PMC3343186 (Nature, 2012):
# System: diet-induced obese C57BL6 mice
# Experiment: Diet-induced obese mice, 30-day treatment
# Assay type: in vivo
# Details: DIO C57Bl6 mice, 100mg/kg i.p. b.i.d., 30 days
compound,measurement,value
CCOC(=O)N1CCC(CN(Cc2ccc(Cl)cc2)Cc2ccc([N+](=O)[O-])s2)C1 (centres unmarked) [SR9009],adiposity (fat mass),more severe reduction in adiposity
same,food intake vs vehicle,no significant difference
